Test results from patent US9216988B2, “Benzyl sulfonamide derivatives as RORc modulators” (Genentech, Inc., priority 2011, dated 2015).
pIC50: −log10 of the molar value.

Amino acid sequences for entries named in this document (tags omitted). Residues count along the entry.
UniProt P51449, 269-508: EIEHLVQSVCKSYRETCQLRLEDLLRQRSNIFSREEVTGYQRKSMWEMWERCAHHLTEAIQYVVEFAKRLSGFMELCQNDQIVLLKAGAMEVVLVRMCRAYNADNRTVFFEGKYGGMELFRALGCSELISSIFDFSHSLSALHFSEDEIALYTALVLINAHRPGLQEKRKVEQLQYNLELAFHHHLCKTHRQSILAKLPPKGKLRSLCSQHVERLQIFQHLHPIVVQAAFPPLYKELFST

target: RORc ligand binding domain (Homo sapiens (Human), UniProt P51449); settings: read-out: RORc IC50; two values in a cell = separated enantiomers, stereochemical identity not determined

Row | SMILES | pIC50
1 | CC(=O)N1CCN(c2ccc(CN(C3CCC3)S(=O)(=O)c3ccc(Cl)cc3Cl)c(F)c2)CC1 [Compound 38, N-[4-(4-Acetyl-piperazin-1-yl)-2-fluoro-benzyl]-2,4-dichloro-N-cyclobutyl-benzenesulfonamide] | 7.12
2 | CC(=O)N1CCN(c2ccc(CN(C3CCC3)S(=O)(=O)Cc3ccccc3F)c(F)c2)CC1 [Compound 92, N-[4-(4-Acetyl-piperazin-1-yl)-2-fluoro-benzyl]-N-cyclobutyl-C-(2-fluoro-phenyl)-methanesulfonamide] | 8.00
3 | CC(C)CN(Cc1ccc(N2CC(C3CCOCC3)C2)cc1)S(=O)(=O)Cc1ccccc1 [Compound 197, N-isobutyl-1-phenyl-N-(4-(3-(tetrahydro-2H-pyran-4-yl)azetidin-1-yl)benzyl)methanesulfonamide] | 7.16
4 | CC(=O)N1CCN(c2ccc(CN(CC(C)C)S(=O)(=O)Cc3ccccc3)cn2)CC1 [Compound 141, N-((6-(4-acetylpiperazin-1-yl)pyridin-3-yl)methyl)-N-isobutyl-1-phenylmethanesulfonamide] | 6.36
5 | CC(=O)N1CCN(c2ccc(CN(C3CCC3)S(=O)(=O)c3cccc(C#N)c3)c(F)c2)CC1 [Compound 68, N-[4-(4-Acetyl-piperazin-1-yl)-2-fluoro-benzyl]-3-cyano-N-cyclobutyl-benzenesulfonamide] | 6.31
